Laboratory results: patent US5885834A, “Antisense oligodeoxynucleotide against phosphodiesterase” (priority 1997, dated 1999)

Test system: NA
Conditions: 100 μM
Protocol: Cells (10^6) were collected by centrifugation at 670×g for 5 min. The cell pellets were rinsed once with 0.2M dibasic sodium phosphate and lysed in 300 μl of lysis buffer (50 mM Tris/HCl pH 7.5, 10 mM EDTA, 1% V/V Triton X-100) for 20 min on ice. Proteinase K was added to 0.5 mg/ml and DNase-free RNase was added to 50 μg/ml and the extract incubated at 37° C. for 1 hr. DNA was then extracted in phenol/chloroform (1:1) and chloroform (1:1) and precipitated in 2.5 volumes of ethanol. The extracted DNA was electrophoresed on 2% agarose gels, the gels stained with 0.5 μg/ml ethidium bromide and photographed under UV light.

With `CCOC(=O)C1=C[C@]2(CC)CCCN3CCc4c(n1c1ccccc41)[C@@H]32` [vinpocetine] the Induction of apoptosis was “induced apoptosis”.
